Laboratory results from US7696168 (TUFTS MEDICAL CENTER, dated 2010).

Target: T1, PAR1 S309P mutant (human, UniProt P25116 42-425)
T1 sequence (looked up): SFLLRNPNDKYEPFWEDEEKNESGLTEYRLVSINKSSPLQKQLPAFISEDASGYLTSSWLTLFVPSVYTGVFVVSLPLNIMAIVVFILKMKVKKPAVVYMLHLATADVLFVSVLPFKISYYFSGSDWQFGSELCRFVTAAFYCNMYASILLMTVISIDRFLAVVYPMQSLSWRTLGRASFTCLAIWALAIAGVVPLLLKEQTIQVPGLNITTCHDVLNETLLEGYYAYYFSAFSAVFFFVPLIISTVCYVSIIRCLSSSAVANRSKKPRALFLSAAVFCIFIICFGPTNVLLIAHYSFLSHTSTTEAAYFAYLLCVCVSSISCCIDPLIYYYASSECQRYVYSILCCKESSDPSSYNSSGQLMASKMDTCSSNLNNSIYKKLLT
Test: cell-based or functional assay

loss of efficacy against wild type PAR1 (InsP): 1.6 fold
Substance: thrombin (enzyme)
